From PubChem BioAssay AID652231 (Johns Hopkins Ion Channel Center, 2013)
This is a selection; strong and weak results do not stand in their true shares. Activity calls are given as the source filed them.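 How the source made its calls: active means duplicate-averaged calcium signal over 20% of the ionomycin maximum, relative to buffer baseline; inactive means the rest.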

experiment: compound-evoked intracellular calcium rise – cell-based, counter-screen for TMEM16A inhibitor project, confirmation (AID 652231); conditions: TMEM16A/YFP HEK293, Fluo4 calcium mobilization; at 10 µM; hits give high values;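 further: each well's signal is peak minus trough fluorescence divided by its pre-addition baseline; 0% = buffer wells and 100% = ionomycin wells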

Row | Structure (SMILES) | calcium response (% of ionomycin)
1 | CCc1nc2c(n1)c1c(non1O)c1c2no[n+]1[O-] | inactive: 0%
